Seven molecules from PubChem BioAssay AID463213 (Sanford-Burnham Center for Chemical Genomics, 2010) can be followed below.

The inhibition is how much of the control response was suppressed.

The entries are a selection whose mix differs from that of the whole data set. Activity calls are given as the source filed them.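 Rule for the calls: active = inhibition of yeast growth at or above a set limit in either of two repeat tests at 20 µM; inactive = the rest.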

The nature of the assay: growth inhibitors of tim10-1 mutant yeast, confirmation, single concentration, luminescence, S. cerevisiae (AID 463213).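 Note: tim10-1 mutant grown at permissive 25 °C to find synthetic lethal compounds; 0% = DMSO yeast wells and 100% = medium wells without yeast.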 To be noted: S. cerevisiae tim10-1 ts strain growth, BacTiter-Glo, 24 h; at 20 µM; stronger effect = higher value.
For `CC(=O)NC(SC(=S)N(CC(C)C)CC(C)C)C(Cl)(Cl)Cl` (configuration not stated), the inhibition is active: 35.3%. The value for `O=[N+]([O-])c1cc([N+](=O)[O-])c(CCNc2ccccc2)c([N+](=O)[O-])c1` was active: 70.8%; that for `Cc1c2non([O-])c-2c(C)[n+](=O)[n+]1[O-]` was active: 44.8%; that for `Cc1ccc2nc3c(c(C)c2c1)CC(C(Cl)Cl)S3` (configuration not stated) was inactive: 21%. For `O=[N+]([O-])c1cc([N+](=O)[O-])c(-c2ccn[nH]2)s1`, the inhibition was active: 82.4%. To `Cc1ccc(NCCc2c([N+](=O)[O-])cc([N+](=O)[O-])cc2[N+](=O)[O-])cc1` belongs active: 66.4%; to `CN(C)C(=O)c1cc([N+](=O)[O-])cc2c1-c1c(cc([N+](=O)[O-])cc1[N+](=O)[O-])C2=O`, active: 73.2%.
